Test results taken from US10023622B2, “Method of immunization for reducing toxic damaged caused by oligomeric form of the amyloid-beta protein with stable amyloid beta monomers and oligomers” (ALZINOVA AB, priority 2008, dated 2018).

What was measured:
A11 polyclonal antibody [1] = format: physicochemical, rabbit
Description: A 80-kDa fraction of Aβ(40) A21C/A30C peptide obtained as in example 5 was concentrated to 20 μM and incubated at 37° C. in 50 mM K^+ phosphate buffer, 50 mM NaCl, and 0.05% azide. Samples were removed at regular intervals during a two-month period and stored at −24° C. until analysis. […] The fluorescence intensity decreased with only 0.1% per day. A related experiment on a monomeric fraction of Aβ(40) A21C/A30C peptide obtained from the same SEC as above was concentrated to 90 μM and incubated at 37° C. in 50 mM K^+ phosphate buffer, 50 mM NaCl, and 0.05% azide. […] A similar sample of monomeric Aβ(42) A21C/A30C peptide obtained as in example 5 and concentrated to 50 μM was incubated at 37° C. in 50 mM K^+ phosphate buffer, 50 mM NaCl, and 0.05% azide was probed for A11 binding.

A11 polyclonal antibody [2] = assay: Dot blot of SEC fractions for A11 antibody binding; design: species or system rabbit; settings: Sephacryl S300 16/60 column, cutoff approximately ≥1500 kDa (FIG. 14)
Description: All fractions of the earlier peak and of the later peak were assayed for A11 (Biosource) binding according to the manufacturer's instructions. 3 μl of each fraction was dot blotted on an Immobilion-P^SQ polyvinylidene fluoride (PVDF) membrane (Millipore) and allowed to dry. The membrane was then blocked over night (approximately 14 h) in 4° C. in 10% non-fat dry milk dissolved in 20 mM Tris-HCl, 140 mM NaCl, 0.01% Tween 20, pH 7.4 (TBST buffer). The membrane was then washed three times with TBST buffer for five minutes, and the A11 primary antibody (Biosource) at 0.5-0.8 μg ml^−1 in 5% non-fat dry milk dissolved in TBST buffer was applied to the membrane for 1 h at room temperature (21° C.). After washing away unbound antibody three times with TBST buffer for five minutes, the secondary antibody (a donkey ECL™ anti-rabbit IgG horseradish peroxidase conjugate from GE Healthcare) at 0.1 μg ml^−1 in 5% non-fat dry milk dissolved in TBST buffer was added to the membrane for 45-60 min at room temperature (21° C.). After washing away unbound antibody as above, SuperSignal West Pico chemiluminescent substrate (Pierce) was added according to the manufacturer's instructions, and horseradish peroxidase enzyme activity was detected by a CCD camera (Fujifilm LAS-1000) coupled to a dark box. […]

[3] = Fibrillation assay monitored by Thioflavin T (TFT) binding; format: physicochemical; settings: 117 μM peptide, 37° C. with shaking
Description: All concentration determinations were carried out spectrophotometrically using an extinction coefficient of 1424 cm^−1 M^−1 for the difference in absorption at 280 nm and 300 nm. The buffered solution used in all examples was 50 mM K^+ phosphate, 50 mM NaCl, pH 7.2, unless otherwise stated. This buffer was also the storage buffer for the Aβ peptides. All peptide samples were prepared fresh, kept at 4° C., and used within 3-4 days.
Fibrillation assays were carried out by monitoring the enhanced fluorescence of the dye TFT upon binding to the fibrils (Levine, H., Methods Enzymol. 309: 274-284 (1999)). Fluorescence was recorded in 96-well plates (Nunc) using a FLUOstar Optima reader (BMG) equipped with 440 nm excitation and 480 nm emission filters. […] The assay was carried out at 37° C., and data points were recorded every 6 min with 2 min of orbital shaking (width 5 mm) preceding each measurement.
The fibrillation assay was carried out as in example 1, except that the concentration of peptide was also assayed at 50, 150, and 250 μM, and the TCEP concentration was increased to 10 mM TCEP in the reference samples. Also, data points were recorded every 15 min with 5 min of orbital shaking (width 5 mm) preceding each measurement.
The fibrillation assay was carried out as in example 2 with the exception that data points were recorded every 10 min. […]

t1/2 of oligomerization into high molecular weight oligomers (A11 polyclonal antibody [1]; rabbit): 52.8 h
A11 binding of SEC fractions (A11 polyclonal antibody [2]): A11-binding species elutes in the void
Fibrillation (TFT fluorescence), reduced sample ([3]; 10 mM TCEP): commences immediately
Fibrillation (TFT fluorescence), oxidized samples ([3]; formed disulphide bond, 42-h assay): remain non-fibrillized
SMILES: CC[C@H](C)[C@H](NC(=O)[C@@H]1CSSC[C@H](NC(=O)[C@H](Cc2ccccc2)NC(=O)[C@H](Cc2ccccc2)NC(=O)[C@@H](NC(=O)[C@H](CC(C)C)NC(=O)[C@H](CCCCN)NC(=O)[C@H](CCC(N)=O)NC(=O)[C@H](Cc2c[nH]cn2)NC(=O)[C@H](Cc2c[nH]cn2)NC(=O)[C@@H](NC(=O)[C@H](CCC(=O)O)NC(=O)[C@H](Cc2ccc(O)cc2)NC(=O)CNC(=O)[C@H](CO)NC(=O)[C@H](CC(=O)O)NC(=O)[C@H](Cc2c[nH]cn2)NC(=O)[C@H](CCCNC(=N)N)NC(=O)[C@H](Cc2ccccc2)NC(=O)[C@H](CCC(=O)O)NC(=O)[C@H](C)NC(=O)[C@H](CC(=O)O)NC(=O)[C@@H](N)CCSC)C(C)C)C(C)C)C(=O)N[C@@H](CCC(=O)O)C(=O)N[C@@H](CC(=O)O)C(=O)N[C@@H](C(C)C)C(=O)NCC(=O)N[C@@H](CO)C(=O)N[C@@H](CC(N)=O)C(=O)N[C@@H](CCCCN)C(=O)NCC(=O)N1)C(=O)N[C@H](C(=O)NCC(=O)N[C@@H](CC(C)C)C(=O)N[C@@H](CCSC)C(=O)N[C@H](C(=O)NCC(=O)NCC(=O)N[C@H](C(=O)N[C@H](C(=O)N[C@H](C(=O)N[C@@H](C)C(=O)O)[C@@H](C)CC)C(C)C)C(C)C)C(C)C)[C@@H](C)CC [Aβ(42) A21C/A30C]
Appearance of A11 epitope in monomeric sample on incubation (A11 polyclonal antibody [1]; monomeric peptide, 50 μM, 37° C.): displayed the A11 epitope already after a few days
